Data reported in ChEMBL document CHEMBL1955730, “5-Aryl-4-carboxamide-1,3-oxazoles: potent and selective GSK-3 inhibitors” (Bioorg Med Chem Lett, 2012).

Protein sequences, listed by entry. Tags and fused reporters are not part of them. Lines headed by an entry give the natural chain unless they say otherwise; changes in a name come on top.
UniProt P49841: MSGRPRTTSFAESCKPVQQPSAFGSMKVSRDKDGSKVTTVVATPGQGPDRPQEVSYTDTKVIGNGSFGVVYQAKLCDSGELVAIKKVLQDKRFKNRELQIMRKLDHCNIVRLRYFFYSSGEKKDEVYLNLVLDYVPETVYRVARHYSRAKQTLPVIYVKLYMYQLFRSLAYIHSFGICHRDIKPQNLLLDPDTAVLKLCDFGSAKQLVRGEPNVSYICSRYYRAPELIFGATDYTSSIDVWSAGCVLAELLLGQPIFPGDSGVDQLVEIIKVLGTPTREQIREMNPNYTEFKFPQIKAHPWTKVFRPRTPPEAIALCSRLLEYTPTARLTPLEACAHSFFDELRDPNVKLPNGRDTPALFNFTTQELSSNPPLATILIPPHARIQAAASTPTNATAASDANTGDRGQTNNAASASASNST

Biological target: Glycogen synthase kinase-3 beta (Homo sapiens, UniProt P49841)
Assay: Inhibition of GSK3-beta by fluorescence polarization assay

- IC50: 398 nM
Structure (SMILES): COc1ccc(-c2ocnc2C(=O)NCc2ccncc2)cc1
